# Earlier results as cited in patent US20140256765A1, “TRANSMUCOSAL DRUG DELIVERY SYSTEM” (priority 2013, published 2014).
# This is a selection: effects in other tests are not listed, and their absence says nothing.
# Conditions: current transmucosal therapy (lollipop)
smiles,measurement,value
CCC(=O)N(c1ccccc1)C1CCN(CCc2ccccc2)CC1,time to reach maximum plasma concentrations,over 20 minutes
